According to patent US20100169988A1, “MEANS AND METHODS FOR ISOLATING AND DETERMINING NOVEL TARGETS FOR THE TREATMENT OF NEURODEGENERATIVE, NEUROLOGICAL OR NEUROPSYCHIATRIC DISORDERS AND COMPOSITIONS COMPRISING THE SAME” (priority 2006, published 2010):

What was measured:
APP-TAP-AICD (human) [1] = target: APP-TAP-AICD (human) (UniProt P05067); assay: streptavidin purification of APP-TAP-AICD from brain homogenate; iTRAQ 116/114, transgenic mouse 75 vs control mouse 72; MALDI-TOF/TOF
APP-TAP-AICD (human) [2] = target: APP-TAP-AICD (human) (UniProt P05067); assay: streptavidin purification of APP-TAP-AICD from brain homogenate; LTQ-FT semiquantitative method, transgenic mouse 75 vs control mouse 72

iTRAQ ratio (APP-TAP-AICD (human) [1])	probability that this protein is enriched (APP-TAP-AICD (human) [2])	Substance
3.92	–	Dihydropyrimidinase related protein-2 (DRP-2) (ULIP 2 protein) (from UniProt O08553 1-572) (other; other documents disagree on this pair)
4.48	–	Glucose-6-phosphate isomerase (GPI) (Phosphoglucose isomerase) (PGI) (from UniProt P06745 2-558) (enzyme; other documents disagree on this pair)
4.71	–	Sodium/potassium-transporting ATPase alpha-1 chain precursor (Sodium pump 1) (from UniProt Q8VDN2 6-1023) (enzyme; other documents disagree on this pair)
4.41	0.88	Synaptosomal-associated protein 25 (SNAP-25) (Synaptosomal-associated 25 kDa protein) (from UniProt P60879 1-206)
